# Test results reported in ChEMBL document CHEMBL2177075, “Low molecular weight amidoximes that act as potent inhibitors of lysine-specific demethylase 1” (J Med Chem, 2012).
# Columns and labels:
# [1] = target: Lysine-specific histone demethylase 1A (Homo sapiens) (UniProt O60341); conditions: Calu-6, 1 uM
# [2] = target: Lysine-specific histone demethylase 1A (Homo sapiens) (UniProt O60341); conditions: Calu-6, 1 uM; remark: listed apart in the source
smiles,measurement,setting,value
N=C(N)NN,inhibition,[1],inactive
same,inhibition,[2],inactive

# Active and inactive are the calls of the source. No cut-off for these calls is given here.
